{"source": "patent US20200179487A1", "about": "“METHODS OF DIAGNOSIS AND TREATMENT OF PRE-ECLAMPSIA” (AGENCY FOR SCIENCE, TECHNOLOGY AND RESEARCH, priority 2016, published 2020)", "molecular_target": "T1, APJ (APLNR) (Homo sapiens, UniProt P35414)", "T1 sequence (P35414 1-380)": "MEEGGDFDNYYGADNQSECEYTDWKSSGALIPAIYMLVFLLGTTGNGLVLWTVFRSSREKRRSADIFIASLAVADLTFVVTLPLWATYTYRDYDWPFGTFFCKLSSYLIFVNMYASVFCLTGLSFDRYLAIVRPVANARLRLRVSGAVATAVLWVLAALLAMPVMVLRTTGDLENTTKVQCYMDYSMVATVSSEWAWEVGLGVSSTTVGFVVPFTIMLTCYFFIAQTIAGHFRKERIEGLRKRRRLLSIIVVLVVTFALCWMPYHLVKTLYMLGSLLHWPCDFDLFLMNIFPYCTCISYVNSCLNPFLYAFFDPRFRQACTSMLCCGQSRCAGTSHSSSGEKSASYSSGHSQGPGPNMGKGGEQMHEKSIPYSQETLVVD", "assay": "APJ activation measured by beta-Arrestin recruitment", "type": "cell-based", "data": [{"substance": "APELIN", "values": [{"measurement": "synergy of ELA and APELIN with respect to APJ activation", "setting": "ELA and APELIN combined", "result": "no appreciable synergy"}, {"measurement": "potency of APJ (APLNR) activation", "setting": "beta-Arrestin recruitment, ELA compared with APELIN", "result": "same potency"}]}]}
